## Antibody variant affinities, Ab-91 heavy chain, assay 2

Source: Engelhart et al. 2022 (doi:10.1038/s41597-022-01779-4), MIT Lincoln Laboratory and A-Alpha Bio; data file from the FLAb repository.

Target: peptide PDVDLGDISGINAS, taken from heptad repeat 2 (HR2) of SARS-CoV-2 spike.

Each scFv is VL, a (GGGGS)3 linker, VH, as in the parent Ab-91, and differs from it in the CDRs of the heavy chain only.
VL: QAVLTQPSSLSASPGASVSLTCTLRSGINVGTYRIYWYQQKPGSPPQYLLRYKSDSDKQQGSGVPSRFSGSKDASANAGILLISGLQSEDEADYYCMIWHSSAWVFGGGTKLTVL
VH: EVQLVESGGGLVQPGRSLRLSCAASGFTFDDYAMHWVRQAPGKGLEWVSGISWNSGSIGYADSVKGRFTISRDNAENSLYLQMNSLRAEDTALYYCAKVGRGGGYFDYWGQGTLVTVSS

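The starting antibody came from a phage panning campaign against this peptide. Variants in AAYL51 differ from the parent at up to three CDR positions; double and triple changes were sampled at random. Affinity was read by AlphaSeq, a pooled yeast mating assay with surface-displayed partners. After mating in shaken culture at 30 °C for 16 h, diploids were selected and their barcode pairs sequenced. Scores were corrected for input abundance and mapped to Kd with protein pairs of known affinity run in the same pool. Each pool was mated in three replicate cultures.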

Variants are written as CDR1, CDR2 and CDR3 of the heavy chain (limits as in the source). Parent: GFTFDDYAMH, GISWNSGSIGYADSVK, VGRGGGYFDY. Kd is apparent (estimated from mating counts) and averaged on the log scale over replicates with a signal. Smaller is tighter. A pair that was not seen in any replicate is written "no signal"; this usually means weak binding, but a binder can also be missed. As a blank, each scFv also met three strains without target: over library AAYL51, 21% of these pairings were detected, typically at 34 µM and seldom below 1.8 µM. Also given: how often the same scFv was detected with the empty control strains. In this assay the parent's reference entry averaged 72 nM; its copy inside this library read 7.5 nM.

CDR-H1,CDR-H2,CDR-H3,Kd,replicates with signal,control signals
GFTFDRYAMH,GYSWNSGSIGYADSVK,VGRGGGYFAY,1.3 mM,2 of 3,1 of 9
GNTFDDYAMH,GISWNSGHIGPADSVK,VGRGGGYFDY,4.8 µM,1 of 3,2 of 9
GFTFDHYAMH,GISWNSGSIFYADIVK,VGRGGGYFDY,no signal,0 of 3,1 of 9
GFWFDDYAQH,GISWNSGSIGYADSVK,VGYGGGYFDY,250 µM,2 of 3,6 of 9
GFTFDDYAMH,GISWNSGSIGYADSVA,VGRGHGYGDY,no signal,0 of 3,1 of 9
GFTFDDYAMH,GISWSSGSIGIADSVK,EGRGGGYFDY,110 µM,2 of 3,2 of 9
WFTFDDYYMH,GISWNSGSIGYRDSVK,VGRGGGYFDY,2.2 mM,1 of 3,1 of 9
GFTFDDRAMH,GISWNSGSICYADSVK,VGRGGCYFDY,530 nM,3 of 3,4 of 9
GFTFDDYAMH,GISWNSGSIGYASSVI,VGRGGGYFDG,no signal,0 of 3,1 of 9
GFTFDSYAMH,GISWNSGSIGYADSLK,VGRGGVYFDY,no signal,0 of 3,0 of 9
GFTFDDYAMH,GISWNSGSPGYADSVK,FGRGGHYFDY,47 µM,2 of 3,1 of 9
GFTFDPYAMH,GISWASGSIGYADSVK,LGRGGGYFDY,100 µM,3 of 3,4 of 9
GFTFDDYAMH,GISWNCGSIGYADSVK,VGRGGGYYDK,31 µM,1 of 3,1 of 9
HFTFDDYAMH,GISWNSGSIGYADSVK,VGRGGGYTWY,280 µM,2 of 3,4 of 9
GFTFDDYAMH,GISWTSGSIGYADDVK,VGRWGGYFDY,no signal,0 of 3,0 of 9
TFTFDDYAMH,GISWNSGSIGYADSYK,VGRGGGEFDY,no signal,0 of 3,1 of 9
LFHFDDYAMH,GISVNSGSIGYADSVK,VGRGGGYFDY,no signal,0 of 3,6 of 9
GFTFDDYAMH,GISWQSGSIGLADSVK,VGRMGGYFDY,no signal,0 of 3,0 of 9
GFTFDVYAMH,DISWNSGSIGYADSVK,VGRGGGYIDY,no signal,0 of 3,0 of 9
GFMFDDYAMH,GISWNSGSIGYYISVK,VGRGGGYFDY,no signal,0 of 3,0 of 9
GITFDDYAMH,GGSWNSGSIGYADSVK,DGRGGGYFDY,no signal,0 of 3,0 of 9
GFTFDDYAMH,GKIWNSGSIGYADSVK,VGRGFGYFDY,130 µM,2 of 3,3 of 9
GFTFLNYAMH,GISHNSGSIGYADSVK,VGRGGGYFDY,6.1 nM,3 of 3,1 of 9
GFTKDDYAMH,GIEWKSGSIGYADSVK,VGRGGGYFDY,no signal,0 of 3,1 of 9
GFEFDDYAMN,GISWNSGSIGYADSVK,VGRGGGYTDY,no signal,0 of 3,1 of 9
GFTFDDYAMH,GKIWNSGSIGYADSVK,VGRGGGTFDY,no signal,0 of 3,0 of 9
GFTFDDYAMH,GIDWNYGSIGYADSVK,NGRGGGYFDY,no signal,0 of 3,0 of 9
GFTFDDHAMH,GISWNSGSEGYADSVK,VGRHGGYFDY,50 µM,3 of 3,6 of 9
CFSFDDYAMH,GISWNSGSIGYADSVK,WGRGGGYFDY,no signal,0 of 3,1 of 9
GFTFDDYAMH,GIIWNSGSIGYADSVK,VGRGAGYFPY,81 µM,1 of 3,1 of 9
GFTFDDYAMR,GISWNSGSIGEADSVK,VGRGGGYNDY,6.9 µM,1 of 3,2 of 9
GFCFDDYNMH,GISWNSGSIGYAGSVK,VGRGGGYFDY,no signal,0 of 3,0 of 9
GFTFDFYAMH,GISWNSGSRGYADSVK,VGRGGGYFTY,3.8 nM,3 of 3,1 of 9
GFTFDDYAMH,GISWNSGSIGYADSVN,VGRGGGYFFA,no signal,0 of 3,1 of 9
GFTFDDYAMH,GISWNIGSIGYARGVK,VGRGGGYFDY,no signal,0 of 3,0 of 9
GFTFDDYAMH,GISWNSGSIGYADWVK,VGCGIGYFDY,2.3 µM,1 of 3,1 of 9
GFTFDDEAMH,GISWNSMSIGYADHVK,VGRGGGYFDY,no signal,0 of 3,1 of 9
GFTFDDYAMH,GISWNFGSIGYADSVK,VGRGGGSFDY,26 µM,2 of 3,2 of 9
TFTFDDYAMS,GISWNSGSIGYADSVG,VGRGGGYFDY,160 µM,2 of 3,5 of 9
GFPFDVYAMH,GISWNSGSIGYADSKK,VGRGGGYFDY,no signal,0 of 3,0 of 9
GFIFDDYAMH,GISWNSGGIGYADSVK,VGRCGGYFDY,400 nM,3 of 3,1 of 9
GFTFDDYAML,GISWNSGSIGYADSVK,VGRFGGYFMY,no signal,0 of 3,1 of 9
GFTFDDYAMH,GISANSHSIGYADSVK,VGRGGEYFDY,21 µM,1 of 3,2 of 9
GFTFDDYAMH,GISWNSGSYGYASSVK,VGLGGGYFDY,380 µM,1 of 3,4 of 9
GFTFDDYAMH,GISWWNGSIGYIDSVK,VGRGGGYFDY,260 µM,1 of 3,4 of 9
LFTFDDYAMH,GISWNSGSIGYADSVK,VGREGGYFDS,430 nM,3 of 3,2 of 9
GFTFDDYAMT,GISWTSGSIGYADSVK,VGRGSGYFDY,no signal,0 of 3,0 of 9
GFTFDDQAMH,GISWNTGSIGYADSVK,VWRGGGYFDY,no signal,0 of 3,1 of 9
GFTFDDRCMH,GISWNSGSIGYADSVK,VGRGGGYFDY,49 µM,2 of 3,2 of 9
GATFDDYAMH,GISWNSGSIGPADSVK,VGRGGGYFDY,no signal,0 of 3,0 of 9
GFTRDRYAMH,GISWNSGSIGYADSVK,WGRGGGYFDY,no signal,0 of 3,0 of 9

Top 6 of the variants detected in all replicates, tightest first:

CDR-H1,CDR-H2,CDR-H3,Kd,replicates with signal,control signals
GFTFDFYAMH,GISWNSGSRGYADSVK,VGRGGGYFTY,3.8 nM,3 of 3,1 of 9
GFTFLNYAMH,GISHNSGSIGYADSVK,VGRGGGYFDY,6.1 nM,3 of 3,1 of 9
GFIFDDYAMH,GISWNSGGIGYADSVK,VGRCGGYFDY,400 nM,3 of 3,1 of 9
LFTFDDYAMH,GISWNSGSIGYADSVK,VGREGGYFDS,430 nM,3 of 3,2 of 9
GFTFDDRAMH,GISWNSGSICYADSVK,VGRGGCYFDY,530 nM,3 of 3,4 of 9
GFTFDDHAMH,GISWNSGSEGYADSVK,VGRHGGYFDY,50 µM,3 of 3,6 of 9